Measurements reported in US12398179B2, “Nanomolar peptides and derivatives to differentially modulate ephrin receptors” (Sanford Burnham Prebys Medical Discovery Institute, priority 2019, dated 2025).
Entries after “also recorded” stand apart in the source; their conditions may differ. One block for each compound: values may come before it.

Chains of the proteins cited; added tags and fusions are not shown. Residues count along the entry.
UniProt P29317, 24-537 limits assumed, species assumed: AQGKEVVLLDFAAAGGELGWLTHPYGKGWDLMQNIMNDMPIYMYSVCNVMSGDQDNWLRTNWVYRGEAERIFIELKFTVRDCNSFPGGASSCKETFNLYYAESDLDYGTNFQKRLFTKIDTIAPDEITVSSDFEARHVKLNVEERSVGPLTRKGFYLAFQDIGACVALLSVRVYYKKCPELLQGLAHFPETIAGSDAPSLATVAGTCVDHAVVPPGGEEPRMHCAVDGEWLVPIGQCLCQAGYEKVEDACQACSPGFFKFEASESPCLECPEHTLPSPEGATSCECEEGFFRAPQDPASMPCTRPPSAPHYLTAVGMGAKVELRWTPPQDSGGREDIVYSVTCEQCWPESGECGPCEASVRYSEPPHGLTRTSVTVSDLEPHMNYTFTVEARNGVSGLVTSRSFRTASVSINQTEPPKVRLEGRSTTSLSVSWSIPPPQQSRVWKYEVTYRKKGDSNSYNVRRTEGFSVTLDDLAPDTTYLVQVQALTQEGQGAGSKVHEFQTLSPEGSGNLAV
UniProt P29317, 28-200: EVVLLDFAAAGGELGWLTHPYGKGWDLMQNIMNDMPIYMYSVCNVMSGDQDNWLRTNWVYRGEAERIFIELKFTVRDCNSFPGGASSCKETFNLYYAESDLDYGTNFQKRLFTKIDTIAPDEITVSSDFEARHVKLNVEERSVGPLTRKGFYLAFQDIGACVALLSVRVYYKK

Columns and labels:
[1] = biological target: EphA2 (Homo sapiens, UniProt P29317); assay: ELISA: inhibition of ephrin-A5 AP binding to immobilized EphA2 Fc; set-up: the immobilized EphA2 extracellular domain fused to the Fc portion of an antibody (EphA2 Fc); conditions: for inhibitory potency in ELISAs (in words): ephrin-A5-EphA2 binding; for fold higher potency in ELISA: amidated peptide compared with the peptide with unmodified C-terminus
Protocol: (FIG. 2A) Representative ELISAs comparing the ability of the peptides to inhibit binding of ephrin-A5 fused to alkaline phosphatase (ephrin-A5 AP) to the immobilized EphA2 extracellular domain fused to the Fc portion of an antibody (EphA2 Fc). The graphs show averages±SE from triplicate measurements from a representative experiment. IC50 values calculated from the fitted curves in each experiment are shown. All concentrations are nM and the 100 nM peptide concentration is outlined in red. (FIG. 2B) Ephrin-A5 AP binding to the indicated EphA receptors and ephrin-B2 AP binding to the indicated EphB receptors in the presence of the indicated peptide, normalized to ephrin binding without peptide. The bars show averages±SE from triplicate measurements.

[2] = Peptide solubility in PBS/H2O
[3] = biological target: T1, EphA2 LBD (Homo sapiens, UniProt P29317); assay: Isothermal titration calorimetry (ITC) of peptide binding
T1 construct: EphA2 LBD (residues 28-200); made in house; host or cells: E. coli Origami 2 (DE3)
Protocol: For ITC, all peptides were dissolved in DMSO and both the EphA2 LBD and the peptides were diluted to obtain a final buffer containing 9.5 mM HEPES, pH 7.9, 95 mM NaCl, and 5% DMSO. […] Two-microliter aliquots of a peptide solution were injected into the cell containing 205 μL EphA2 LBD. 200-400 μM peptides were titrated into 20-40 μM EphA2 LBD. Experimental data were analyzed using the Origin software package (Microcal). The integrated values for the reaction heats were normalized to the amount of injected peptide after blank subtraction.

Structure (SMILES): CSCC[C@H](NC(=O)[C@@H]1CCCN1C(=O)[C@@H](NC(=O)[C@H](CO)NC(=O)[C@H](CC(=O)O)NC(=O)[C@@H]1CCCN1C(=O)[C@H](Cc1ccc(O)cc1)NC(=O)[C@H](C)NC(=O)[C@H](CO)NC(=O)[C@@H](N)Cc1ccc(O)cc1)C(C)C)C(N)=O [YSA1-10am]
inhibitory potency in ELISAs (in words) [1]: as potent as YSA

Structure (SMILES): CC(C)C[C@H](NC(=O)[C@H](Cc1c[nH]c2ccccc12)NC(=O)CCN)C(=O)N[C@@H](C)C(=O)N[C@@H](Cc1ccc(O)cc1)C(=O)N1CCC[C@H]1C(=O)N[C@@H](CC(=O)O)C(=O)N[C@@H](CO)C(=O)N[C@H](C(=O)N1CCC[C@H]1C(=O)N[C@@H](Cc1ccc(O)cc1)C(=O)N[C@@H](CCCNC(=N)N)C(=O)O)C(C)C [βA-WLA-YR]
solubility in aqueous solutions (in words) [2]: improved peptide solubility in aqueous solutions

Structure (SMILES): CC(C)C[C@H](NC(=O)[C@H](Cc1c[nH]c2ccccc12)NC(=O)CCN)C(=O)N[C@@H](C)C(=O)N[C@@H](Cc1ccc(O)cc1)C(=O)N1CCC[C@H]1C(=O)N[C@@H](CC(=O)O)C(=O)N[C@@H](CO)C(=O)N[C@H](C(=O)N1CCC[C@H]1C(=O)N[C@@H](Cc1ccc(O)cc1)C(=O)N[C@@H](CCCNC(=N)N)C(=O)N1CCC[C@H]1C(=O)N[C@@H](CCCCNC(=O)CCCC[C@@H]1SC[C@@H]2NC(=O)N[C@@H]21)C(N)=O)C(C)C [βA-WLA-YRPKam-bio]
fold higher potency in ELISA [1]: ~2 fold

Structure (SMILES): CC(C)C[C@H](NC(=O)[C@H](Cc1c[nH]c2ccccc12)NC(=O)CCN)C(=O)N[C@@H](C)C(=O)N[C@@H](Cc1ccc(O)cc1)C(=O)N1CCC[C@H]1C(=O)N[C@@H](CC(=O)O)C(=O)N[C@@H](CO)C(=O)N[C@H](C(=O)N1CCC[C@H]1C(=O)N[C@@H](Cc1ccc(O)cc1)C(=O)N[C@@H](CCCNC(=N)N)C(=O)N1CCC[C@H]1C(=O)N[C@@H](CCCCN)C(N)=O)C(C)C [βA-WLA-YRPKam]
N (binding stoichiometry) [3]: 0.96 ± 0.19 | TΔS [3]: 21.25 ± 0.16 kcal/mol | ΔG (change in Gibbs energy) [3]: −9.40 ± 0.01 | ΔH [3]: -30.65 ± 0.17 kcal/mol | fold higher potency in ELISA [1]: ~2 fold

Structure (SMILES): CSCC[C@H](NC(=O)[C@@H]1CCCN1C(=O)[C@@H](NC(=O)[C@H](CO)NC(=O)[C@H](CC(=O)O)NC(=O)[C@@H]1CCCN1C(=O)[C@H](Cc1ccc(O)cc1)NC(=O)[C@H](C)NC(=O)[C@H](CC(C)C)NC(=O)[C@@H](N)Cc1c[nH]c2ccccc12)C(C)C)C(N)=O [WLAam]
fold improved potency in ELISA ([1]; compared with YSA1-10 am): ~2 fold

More lines, main results first:

solubility in aqueous solutions (in words) [2]: not being soluble in aqueous solutions
Structure (SMILES): CC(C)C[C@H](NC(=O)[C@H](Cc1c[nH]c2ccccc12)NC(=O)CCN)C(=O)N[C@@H](C)C(=O)N[C@@H](Cc1ccc(O)cc1)C(=O)N1CCC[C@H]1C(=O)N[C@@H](CC(=O)O)C(=O)N[C@@H](CO)C(=O)N[C@H](C(=O)N1CCC[C@H]1C(=O)N[C@@H](Cc1ccc(O)cc1)C(=O)N[C@@H](CO)C(=O)N1CCC[C@H]1C(=O)N[C@@H](CCCCNC(=O)CCCC[C@@H]1SC[C@@H]2NC(=O)N[C@@H]21)C(=O)O)C(C)C [βA-WLA-YSPK-bio]
inhibitory potency in ELISAs (in words) [1]: only slightly decreased potency; also recorded: essentially unaffected

fold improved potency in ELISA ([1]; compared with βA-WLAam): ~2 fold
Structure (SMILES): CC(C)C[C@H](NC(=O)[C@H](Cc1c[nH]c2ccccc12)NC(=O)CCN)C(=O)N[C@@H](C)C(=O)N[C@@H](Cc1ccc(O)cc1)C(=O)N1CCC[C@H]1C(=O)N[C@@H](CC(=O)O)C(=O)N[C@@H](CO)C(=O)N[C@H](C(=O)N1CCC[C@H]1C(=O)N[C@@H](Cc1ccc(O)cc1)C(N)=O)C(C)C [βA-WLA-Yam]

fold increased potency in ELISA ([1]; compared with WLAam): ~2 fold
Structure (SMILES): CSCC[C@H](NC(=O)[C@@H]1CCCN1C(=O)[C@@H](NC(=O)[C@H](CO)NC(=O)[C@H](CC(=O)O)NC(=O)[C@@H]1CCCN1C(=O)[C@H](Cc1ccc(O)cc1)NC(=O)[C@H](C)NC(=O)[C@H](CC(C)C)NC(=O)[C@H](Cc1c[nH]c2ccccc12)NC(=O)CCN)C(C)C)C(N)=O [βA-WLAam]
